Source: patent US6713443B1, “Compounds which modify serotoninergic transmission, diagnostic and therapeutic applications” (Institut Pasteur, priority 1993, dated 2004)

Columns and labels:
[1] = tested on: 5-HT1B/D receptors; experiment: Relative activity at 1 nM, [3H]5-HT binding; conditions: 1 nM peptide or amino acid, 30 nM [3H]5-HT
Method: (§1) The binding experiments were performed as described above. […] Each value corresponds to the mean ± the standard deviation of three independent tests performed in quintuplicate.

[2] = tested on: 5-HT1B/D receptors; experiment: Relative activity at 1 nM, [125I]cyanopindolol binding; conditions: 1 nM peptide or amino acid, 0.3 nM [125I]cyanopindolol
Method: as §1

| Substance | RELATIVE POTENCY, Receptors 5-HT1B/D ([3H]5-HT) [1] | RELATIVE POTENCY, Receptors 5-HT1B/D ([125I]-cyanopindolol) [2] |
| --- | --- | --- |
| LEU-ALA | 1 ± 2 percentage of the LSAL effect | 1.7 ± 1.6 percentage of the LSAL effect |
| SER-LEU (SL) | 4 ± 4 percentage of the LSAL effect | – |
